Earlier results, collected in PMC3721222.

Biological target: Trypsin (Bos taurus) (UniProt P00760)

BPTI (from UniProt P00974)
Kd: 6.57 nM
